# Antibody variant affinities, Ab-91 heavy chain, assay 2

Values reported by Engelhart et al. 2022, doi:10.1038/s41597-022-01779-4 (FLAb copy).

All variants were tested on one target, the spike HR2 peptide PDVDLGDISGINAS (SARS-CoV-2).

The variants keep the light chain, the linker and the frameworks of Ab-91 (scFv order VL, the linker GGGGSGGGGSGGGGS, VH).
VL: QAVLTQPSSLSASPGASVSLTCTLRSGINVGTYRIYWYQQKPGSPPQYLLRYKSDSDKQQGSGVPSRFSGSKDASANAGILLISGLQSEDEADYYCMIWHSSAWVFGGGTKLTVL
VH: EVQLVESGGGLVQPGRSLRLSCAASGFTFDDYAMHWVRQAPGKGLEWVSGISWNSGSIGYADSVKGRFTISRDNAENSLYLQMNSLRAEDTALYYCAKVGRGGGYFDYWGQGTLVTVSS

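Phage display of a naive human antibody library on the peptide gave the parent. AAYL51 was designed without a model: most single CDR substitutions and a random sample of double and triple ones. The assay is AlphaSeq: two haploid yeast populations carry antibody and antigen on their surface. After mating in shaken culture at 30 °C for 16 h, diploids were selected and their barcode pairs sequenced. A regression on co-assayed BCL2-family reference pairs converts the normalised counts of each replicate to an apparent Kd. The assay was run in three technical replicates.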

Variants are written as CDR1, CDR2 and CDR3 of the heavy chain (limits as in the source). Parent: GFTFDDYAMH, GISWNSGSIGYADSVK, VGRGGGYFDY.
Scale: log10 of Kd in nM, estimated from mating counts; low values are strong binders.
Where no diploid with the target was found in that replicate, the entry reads "n.d.": below detection, most likely a poor binder, though not proof of it.
Background: pairings of library AAYL51 with three empty control strains gave a value in 21% of cases (median 4.54, 5th percentile 3.26). Values in that range, when seen in few replicates, are hard to tell from nonspecific mating. Also given: how often the same scFv was detected with the empty control strains, with their mean in brackets.
In this assay the parent's reference entry averaged 1.86; its copy inside this library read 0.88.

| # | CDR-H1 | CDR-H2 | CDR-H3 | log10 Kd (nM) by replicate | empty controls |
|---|---|---|---|---|---|
| 1 | GFTFDDYAMH | GINWNGGSIGYADSVK | VGRGGGYFDY | 1.77 1.74 1.23 | 6 of 9 (4.24) |
| 2 | GFTFDMYGMH | GISWNSGSIGYADSVK | VGRFGGYFDY | 0.68 0.61 -0.04 | 7 of 9 (4.61) |
| 3 | IFTFDDYAMY | GISWNSGSIGYADSVK | VGRGGDYFDY | n.d. 4.74 n.d. | 3 of 9 (4.82) |
| 4 | GFNFDDYAMH | GASLNSGSIGYADSVK | VGRGGGYFDY | n.d. n.d. 3.81 | 0 of 9 |
| 5 | GFTFDDYAMH | GISWNSGSIGYADSWK | VGRSGGYCDY | n.d. n.d. n.d. | 0 of 9 |
| 6 | GFTFDDYAMH | GISWNSGEIGYYDSVK | VGRGGRYFDY | 1.24 1.77 1.46 | 0 of 9 |
| 7 | GFFFMDYAMH | GITWNSGSIGYADSVK | VGRGGGYFDY | n.d. n.d. n.d. | 0 of 9 |
| 8 | GFTFDDYAMH | GISWQSGSIGYADSVK | VGRGGGYFDY | n.d. n.d. 2.02 | 0 of 9 |
| 9 | GFTFDDYAMH | GISWNSNSIGYADSVK | VGRMGGYFMY | 3.96 3.95 n.d. | 4 of 9 (4.18) |
| 10 | GFTFDWYAMH | GISWNSGSIGYADSVL | VDRGGGYFDY | n.d. n.d. n.d. | 0 of 9 |
| 11 | GFTFDDYGMH | GISWNSGSIGYKDRVK | VGRGGGYFDY | n.d. n.d. n.d. | 3 of 9 (4.85) |
| 12 | GFTRDDYADH | GISWNSGSIGYADSVK | VGRGRGYFDY | 4.69 3.98 n.d. | 4 of 9 (4.82) |
| 13 | GFTFDDYAYH | GDSWNSGSIGYADSVK | VGRHGGYFDY | 4.24 4.83 4.10 | 1 of 9 (4.34) |
| 14 | GFLFDDYAMH | GISWNSGSIGYADSWK | VGRGGGYFDY | 3.06 n.d. 3.13 | 0 of 9 |
| 15 | GFTFDDYAMH | GISWNSGSIGYADSIK | VGRVGGYFYY | 5.68 4.27 n.d. | 3 of 9 (4.17) |
| 16 | GFTFDSYAMH | GIWWNSGSIGYADNVK | VGRGGGYFDY | n.d. n.d. n.d. | 0 of 9 |
| 17 | GFTFLDYAMH | GISWNSGSGLYADSVK | VGRGGGYFDY | n.d. n.d. n.d. | 0 of 9 |
| 18 | GDTFDDYAMH | GISWCSGSIGYADSVK | VGRGGGYFDP | n.d. 6.05 4.69 | 4 of 9 (4.58) |
| 19 | GFTFDDYAWH | AISWNSGSIGYADSVK | VGRGHGYFDY | n.d. 2.54 n.d. | 0 of 9 |
| 20 | GFTFDDYAMH | GISWNSCSIGYADSVK | VGRTGGYFDY | 4.45 4.72 n.d. | 5 of 9 (4.92) |
| 21 | GFTFDDYAMH | GISWNSGSIGYADEVK | VGRGGWYFDH | 4.40 n.d. 4.92 | 3 of 9 (4.75) |
| 22 | GFTFDDYAMH | GISWNSGSIGYADSVK | VDSGPGYFDY | n.d. 4.79 5.25 | 3 of 9 (3.90) |
| 23 | GFTFEDYAMH | GISWNSGSIVYADSVK | VGRGGGWFDY | n.d. n.d. n.d. | 0 of 9 |
| 24 | GFTFDDYYMY | GISWFSGSIGYADSVK | VGRGGGYFDY | n.d. n.d. n.d. | 2 of 9 (3.59) |
| 25 | GFTFDDYAMH | GISWNSGSIGYADSFK | LGDGGGYFDY | n.d. n.d. n.d. | 0 of 9 |
| 26 | GFTFDDYAMH | GISWNSLSIGYADSVK | LGRGGGYFTY | 3.74 n.d. n.d. | 0 of 9 |
| 27 | VFTFDDYAMH | GISWNSGSIGYADSVK | VGRGGLYFRY | n.d. n.d. 5.37 | 3 of 9 (4.96) |
| 28 | GFTFDDYAMH | GISWNSGSIGYADSPE | VGRNGGYFDY | 4.06 4.69 4.14 | 2 of 9 (4.14) |
| 29 | GFTFDDYFME | GISWNSGSIGYVDSVK | VGRGGGYFDY | n.d. n.d. n.d. | 0 of 9 |
| 30 | GFTFDDYAMH | GISWNNGSIEYADSVK | VGRGGGYFDY | n.d. 4.83 n.d. | 0 of 9 |
| 31 | GFTFDDYAMH | GVSWFSRSIGYADSVK | VGRGGGYFDY | 4.64 n.d. n.d. | 0 of 9 |
| 32 | GFVFDDYAMH | GISWNSGSIGYQDSVK | VGRGGGYFDG | n.d. n.d. n.d. | 0 of 9 |
| 33 | GFTFDDGAMH | GISWNSGSIGYADSVK | VGRGGGYFYY | n.d. n.d. n.d. | 6 of 9 (5.01) |
| 34 | GFEFDPYAMH | GISWNSGSIGYADSVK | VGRGGGYFDY | n.d. n.d. n.d. | 1 of 9 (4.26) |
| 35 | GFTFDDYAMH | GISWNSGSIGYCDNVK | SGRGGGYFDY | n.d. 3.29 n.d. | 0 of 9 |
| 36 | GFTFDDYAMM | GISWNSGSIGYAYSVK | VGRGGGYFDY | n.d. n.d. n.d. | 4 of 9 (3.15) |
| 37 | GFTFDDYAMH | GNSWNSGSIGYADSVK | VGRGGGYFDH | 4.60 n.d. 5.30 | 6 of 9 (4.25) |
| 38 | GFTCDDYAMH | GISWNSGMFGYADSVK | VGRGGGYFDY | 4.68 n.d. n.d. | 1 of 9 (4.24) |
| 39 | GFTFDDYAMA | GISWNSGSIGYADSVK | IGRGGEYFDY | 3.78 3.80 n.d. | 0 of 9 |
| 40 | GFTFDCYAMY | GISWNSGSIGYADSVK | LGRGGGYFDY | n.d. n.d. 4.29 | 2 of 9 (4.82) |
| 41 | GFTFDDYAMH | GISWNSGSWTYADSVK | VGRGDGYFDY | 5.94 5.11 n.d. | 0 of 9 |
| 42 | GFTFDDYAMV | GISWNSGSIGYADQVK | MGRGGGYFDY | 5.44 3.58 n.d. | 5 of 9 (4.73) |
| 43 | GFTFDDYAMH | GIIWNSGSIGYADSVK | MGRGGGYFDY | n.d. n.d. n.d. | 0 of 9 |
| 44 | PFTFDDYAMH | GISWNSGSIGYADSVK | VGTGGGYFDY | n.d. n.d. n.d. | 1 of 9 (4.46) |
| 45 | GFTFDDTAMH | GISWVQGSIGYADSVK | VGRGGGYFDY | 6.03 4.66 n.d. | 5 of 9 (4.18) |
| 46 | GFTFVDYAMH | GISWNNGSIGYADSVK | VGRGGTYFDY | 4.64 4.01 n.d. | 0 of 9 |
| 47 | GMTFDDYAMH | GISWNSGSGGYADSVK | VGRGGGYFDW | 4.60 n.d. 4.46 | 1 of 9 (4.39) |
| 48 | GFTFDDYAMH | GISWSSGSIGYADSVK | VGGRGGYFDY | 4.67 n.d. n.d. | 0 of 9 |
| 49 | GFTFDDYAMH | GISWNSGSIGPADSEK | VGRGGGYFDV | 4.20 6.14 4.66 | 7 of 9 (4.95) |